Values of other authors, collected in US20160183526A1, “FUNGICIDAL COMPOSITIONS” (Dow AgroSciences LLC, priority 2014, published 2016).

Details: estimated from a survey of the literature; miscible means totally soluble in water in all amounts; cited from earlier work

## Butylene carbonate
  Solubility of Solvent in Water: 7 mg/mL
